Target: T1, Histone deacetylase 8 (Schistosoma mansoni, UniProt A5H660)
T1 sequence (A5H660 whole entry): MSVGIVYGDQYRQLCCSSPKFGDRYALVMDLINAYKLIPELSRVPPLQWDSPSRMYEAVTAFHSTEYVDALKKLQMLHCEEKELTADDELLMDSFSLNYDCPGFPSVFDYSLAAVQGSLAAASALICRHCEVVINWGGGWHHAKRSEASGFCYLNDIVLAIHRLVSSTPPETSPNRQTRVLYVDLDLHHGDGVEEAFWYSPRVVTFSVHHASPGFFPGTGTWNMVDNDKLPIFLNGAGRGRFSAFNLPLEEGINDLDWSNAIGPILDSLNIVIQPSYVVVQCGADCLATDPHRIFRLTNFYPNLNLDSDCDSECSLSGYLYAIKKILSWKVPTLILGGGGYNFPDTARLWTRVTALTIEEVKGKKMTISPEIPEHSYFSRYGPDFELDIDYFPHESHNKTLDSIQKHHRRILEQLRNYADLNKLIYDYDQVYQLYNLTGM
Assay: Inhibition of Schistosoma mansoni KDAC8 using (FAM)-labeled peptide as substrate after 60 mins by microfluidic assay

How did the IC50 turn out when O=C(O)CCCCN1C(=O)[C@H](CCC(=O)NC(c2ccccc2)(c2ccccc2)c2ccccc2)N=C(c2ccccc2)c2ccccc21 was run?
Its IC50 is over 30 µM.

Source: ChEMBL document CHEMBL4014283, “Structural insights of SmKDAC8 inhibitors: Targeting Schistosoma epigenetics through a combined structure-based 3D QSAR, in vitro and synthesis strategy” (Bioorg Med Chem, 2017)
